Earlier results on one substance are cited in US8691290B2 (priority 2006, dated 2014).

The test system of data set [1] is prepared peritoneal tissue. The conditions noted are these: 10% PVP-I.
Test in data set [2]: not given
This is another data set of the same source.

Where [3] appears, read: 1.25% PVP-I nasal, twice a day for three days, 88 volunteers.
Setting [4] is: daily application of 10% PVP-I for 2 months.

Read-outs that look alike come from different tables or passages of the source.

Turning to polyvinylpyrolodone-iodine [PVP-I], in data set [1] (exposure 1 min), the “Growth rate % (control = 100%)” value is 63%. Besides, in data set [1] (exposure 30 min), the “Growth rate % (control = 100%)” value was 40%. Moreover, the iodine absorbed systemically (administered to the nasal cavity) is on record as 100%. The iodine absorbed systemically (applied to the skin of mammals) is “less than 0.01%”. For the same substance, in data set [2] (setting [3]), the principal side effects entry is “dryness, itchiness and sneezing”; the thyroid dysfunction entry is listed as “No thyroid dysfunction was observed”. For the same substance, in data set [2] (setting [4]), the “family members with elevated TSH levels” value is “four of seven” and the goiter induction result was “did not induce goiter”.
